Earlier results in patent publication US10357501B2, “Treating conditions associated with increased eotaxin with 25-hydroxyvitamin D3” (DSM IP ASSETS B.V., priority 2010, dated 2019).

Conditions: cited from earlier work

In the case of Vitamin D, the safe upper level (Hathcock et al. 2007, 10'000 IU) is listed as “at least 250 μg/day” and the “chronic intake at which toxicity can occur” value (for several months, RDA 5-15 μg or 200-600 IU) is listed as “more than 100 times the recommended daily allowance”.
